Measured values reported in patent US5559132A, “Carboxamide derivatives for treating asthma” (Zeneca Limited, priority 1993, dated 1996).

Chains of the proteins cited; added tags and fusions are not shown.
UniProt P21452, whole entry: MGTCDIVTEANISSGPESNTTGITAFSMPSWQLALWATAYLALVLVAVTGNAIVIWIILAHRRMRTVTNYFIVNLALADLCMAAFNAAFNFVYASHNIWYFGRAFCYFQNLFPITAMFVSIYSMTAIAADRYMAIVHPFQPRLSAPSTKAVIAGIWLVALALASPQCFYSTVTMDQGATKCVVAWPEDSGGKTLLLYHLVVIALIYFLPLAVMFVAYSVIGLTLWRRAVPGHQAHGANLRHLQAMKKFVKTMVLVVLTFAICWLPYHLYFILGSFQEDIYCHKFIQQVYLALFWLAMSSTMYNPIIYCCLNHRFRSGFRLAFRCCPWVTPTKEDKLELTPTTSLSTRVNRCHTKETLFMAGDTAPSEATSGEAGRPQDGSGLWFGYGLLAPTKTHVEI

Legend:
[1] = biological target: T1, human NK2 receptor expressed in Mouse Erythroleukemia (MEL) cells (MELM) (Homo sapiens, UniProt P21452); test: Binding of 3H-NKA to MELM (membrane characterization, equilibrium-competition)
T1 construct: expressed in transfected cells
Procedure: Human NK2 receptor cDNA was subcloned into a shuttle vector (pMEG3) containing the beta-globin promoter and the 3' portion of the human beta-globin gene (FIG. 1). […] An oligonucleotide linker-adaptor containing an internal Hind III site and a 3' end Eco 0109 site was ligated to the hNK2R cDNA fragment. […] These were annealed and ligated to the hNK2R fragment by standard methods. […] G418 was added to a concentration of 1 mg/mL 24 hours after the transfection to select for stable transfectants.

[2] = Procedure: Nonspecific binding is routinely defined with 1 μM NKA. […] The reaction is initiated by the addition of the membranes. […] The reaction is terminated by washing the tubes with 10 mL of ice-cold 50 mM Tris HCl using a Brandel cell harvesting system using Whatman GF/B filters which have been soaked at least 4 hours at room temperature in 0.01% (w:v) polyethylenimine to collect the membranes. The filters are deposited in scintillation vials and read in a Beckman LS 6000LL Scintillation Counter.

specific binding of 3H-NKA to MELM ([1]; 3H-NKA 2.5 nM, typical membrane preparation): 88±4% | Bmax ([1]; 3H-NKA, equilibrium-competition experiments): 2229 fmol/mg protein | degradation or metabolism in the receptor-binding assay [2]: no degradation or metabolism is apparent
Substance: [4,5-3H-Leu9]-NKA [Example 3H-NKA]
